This is an account of results in patent US6979686B1, “Substituted pyrazoles as p38 kinase inhibitors” (Pharmacia Corporation, priority 2001, dated 2005).

Amino acid sequences for entries named in this document (tags omitted).
UniProt Q16539, whole entry: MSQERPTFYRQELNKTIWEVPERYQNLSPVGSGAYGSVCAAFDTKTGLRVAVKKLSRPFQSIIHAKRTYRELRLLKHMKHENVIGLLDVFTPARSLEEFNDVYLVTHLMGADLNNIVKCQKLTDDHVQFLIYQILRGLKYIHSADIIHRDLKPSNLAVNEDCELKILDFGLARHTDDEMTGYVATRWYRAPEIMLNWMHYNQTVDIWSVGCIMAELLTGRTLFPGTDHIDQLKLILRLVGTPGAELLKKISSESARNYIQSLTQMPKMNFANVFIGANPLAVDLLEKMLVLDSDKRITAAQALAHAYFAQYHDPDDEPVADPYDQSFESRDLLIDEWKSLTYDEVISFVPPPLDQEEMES

Where two headings read alike, the source gives them in different places. Some results are limits rather than exact numbers.

The test system of assay [1] is human TNF, human whole blood stimulated with LPS. Description: TNF inhibition: human whole blood assay. In kind it is cell-based. To be noted: read-out: TNF Inhibition-Human Whole Blood Assay; Table 10.
Assay [2] relates to TNF-α, U937 human histiocytic lymphoma cell line. Nature of the assay: LPS stimulation of TNF production by U937 cells. In kind it is cell-based. The note with it: for U937 Cell % inhib @ conc.: @ 1.0 uM, U937 cells stimulated with LPS.
In another assay the target is human p38 kinase alpha (Homo sapiens, UniProt Q16539). Description: p38 kinase in vitro assay, phosphorylation of biotinylated PHAS-I with 32P-ATP. Format: biochemical.
[3] abbreviates: read-out: U937 Cell IC50, TNF production, human U937 cells stimulated with LPS.
Where [4] appears, read: read-out: P38 alpha kinase IC50, in vitro P38-alpha kinase.

Regarding `Clc1ccc(-c2n[nH]c(N3CCSCC3)c2-c2ccncc2)cc1`, the IC50 in assay [1] was > 25000 nM.

On to `CCN(CC)C(=O)NCc1[nH]nc(-c2ccc(F)cc2)c1-c1ccncc1`, for which the IC50 is > 1000 nM in assay [2] (setting [3]) and 2400 nM at human p38 kinase alpha (setting [4]).

`O=S(=O)(NCc1[nH]nc(-c2ccc(F)cc2)c1-c1ccncc1)c1ccc2ccccc2c1`: the “U937 Cell % inhib @ conc.” value in assay [2] (TNF production) stood at 36.0% @.

For the molecule `C[C@@H](NC(=O)NCc1[nH]nc(-c2ccc(F)cc2)c1-c1ccncc1)c1ccccc1`, the IC50 on human p38 kinase alpha (setting [4]) is 130 nM.

`O=C(NCc1[nH]nc(-c2ccc(F)cc2)c1-c1ccncc1)N1CCOCC1`: the IC50 is > 1000 nM in assay [2] (setting [3]) and 550 nM on human p38 kinase alpha (setting [4]).

`CN(C(=O)NCc1[nH]nc(-c2ccc(F)cc2)c1-c1ccncc1)c1ccccc1`: the IC50 on human p38 kinase alpha (setting [4]) was found to be 910 nM.

As for `Cc1n[nH]c(-c2ccc3c(c2)CCO3)c1-c1ccncc1`, the IC50 in assay [2] (read-out: U937 Cell Assay IC50, Table 5, LPS-stimulated U937 cells, TNF-α) is 208 nM; on human p38 kinase alpha (read-out: p38 kinase IC50, activated human p38 kinase alpha, PHAS-I substrate, 50 μM unlabeled ATP), 800 nM.

As to `O=C(NCc1[nH]nc(-c2ccc(F)cc2)c1-c1ccncc1)N1CCCC1`, the “U937 Cell % inhib @ conc.” value in assay [2] (TNF production) is reported as 18% @. In addition, the IC50 on human p38 kinase alpha (setting [4]) is 530 nM.
